Test results from article PMC5269458 (Metallomics : integrated biometal science, 2017).
Like-named read-outs stand apart in the source and are kept apart here.

Key:
Conditional Cu [1] = format: binding
[2] = test system: ctr1Δctr4Δ mutant strain of C. neoformans; experiment: Growth recovery of Cu-import deficient mutant in YPEG medium; format: cell-based, Cryptococcus neoformans; settings: YPEG medium without supplemental Cu, micromolar compound, 48 h
[3] = test system: C. neoformans wild type, H99 cells; format: cell-based, Cryptococcus neoformans; settings: 10 μM ligand co-incubated with 10 μM CuSO4, 1 h, SC medium
Conditional Cu [4] = format: binding; settings: pH 7.4, anaerobic
[5] = test system: wild-type C. neoformans H99; experiment: Growth inhibition; format: cell-based, Cryptococcus neoformans; settings: SC medium, 30 °C, 48 h
[6] = depending on buffer conditions; cited from earlier work

Row | Compound | Cu(II) log KML2 (Conditional Cu [1]; conditional, universal buffer pH 7.4, competition with PAR) | pCu(II) (Conditional Cu [1]; negative log of free [Cu] at pH 7.4, total ligand 10 μM, total Cu 1 μM) | restoration of growth of ctr1Δctr4Δ mutant [2] | cell-associated Cu, Fe and Zn content [3] | competition for Cu(I) with BCA or ferrozine (Conditional Cu [4]) | Minimum inhibitory concentration (MIC) ([5]; no supplemental Cu ([Cu] 0 mM)) [µM] | Minimum inhibitory concentration (MIC) ([5]; supplemental [Cu] 1 mM (CuSO4)) [µM] | pCu(II) [6]
1 | [O-][n+]1ccccc1O [PyO, pyridinol-n-oxide] | 13.8 ± 0.1 | 9.6 | unable to restore growth | did not dramatically alter cellular metal content | did not compete | >100 | >100 | 
2 | human serum albumin: a major Cu(II) carrier protein in the blood |  |  |  |  |  |  |  | 12–13
